The entries are a selection whose mix differs from that of the whole data set. The source made the active and inactive calls.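 How the source made its calls: active means mean replicate inhibition above about 79%, with every replicate also reaching it (limit read from the data); inconclusive means only one of the two criteria met; inactive means mean below limit and not every replicate reaching it.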
target: FAD-linked sulfhydryl oxidase ALR (Homo sapiens) (UniProt P55789); assay: ALR-catalysed DTT oxidation blockers – biochemical, H2O2 detection, HRP-luminol luminescence, single point, primary screen (AID 485317); conditions: purified ALR, hits give high values, concentration not given here

Amino acid sequences for entries named in this document (tags omitted). A change or cut given only in a name is not applied to a line headed by its entry.
UniProt P55789: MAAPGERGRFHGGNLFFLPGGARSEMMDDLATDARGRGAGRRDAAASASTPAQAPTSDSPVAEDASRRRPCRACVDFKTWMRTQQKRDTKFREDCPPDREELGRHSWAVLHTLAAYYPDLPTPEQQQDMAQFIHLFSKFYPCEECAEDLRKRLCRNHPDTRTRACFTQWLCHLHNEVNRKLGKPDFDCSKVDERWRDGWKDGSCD

Row | Compound | inhibition
1 | Clc1ccc(Cl)c(NC2=NCC(CBr)S2)c1 (stereo not given) | active: 94.3%
2 | CC(=O)Nc1ccc(Oc2c([N+](=O)[O-])cc([N+](=O)[O-])cc2[N+](=O)[O-])cc1 | active: 99%
3 | CCOc1ccc(C2=NCC(CBr)S2)cc1 (stereo not given) | active: 95.9%
4 | CS(=O)(=O)c1cc([N+](=O)[O-])c2no[n+]([O-])c2c1 | active: 95.1%
5 | CC(C)/C=N\N=C(\N)N[N+](=O)[O-] | active: 100%

Source: PubChem BioAssay AID485317 (Broad Institute, 2010)
